Yeast mating assay 2: variants of the scFv Ab-91

From the AlphaSeq antibody data of Engelhart et al. 2022 (doi:10.1038/s41597-022-01779-4), copy in the FLAb collection.

Binding partner: SARS-CoV-2 spike HR2 peptide, sequence PDVDLGDISGINAS.

Each scFv is VL, three GGGGS repeats, VH, as in the parent Ab-91, and differs from it in the CDRs of the heavy chain only.
VL: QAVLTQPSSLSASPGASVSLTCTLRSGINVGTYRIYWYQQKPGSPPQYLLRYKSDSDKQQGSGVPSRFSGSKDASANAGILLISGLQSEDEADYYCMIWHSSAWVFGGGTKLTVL
VH: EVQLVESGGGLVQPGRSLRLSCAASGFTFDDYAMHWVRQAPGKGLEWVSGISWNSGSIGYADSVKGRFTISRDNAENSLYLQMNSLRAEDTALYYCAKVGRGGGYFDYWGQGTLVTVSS

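In library AAYL51, one, two or three CDR residues were substituted; doubles and triples were drawn at random. The assay is AlphaSeq: two haploid yeast populations carry antibody and antigen on their surface. Mating (16 h, 30 °C) was followed by selection of diploids and sequencing of their barcodes. Read counts were normalised to the haploid input and turned into Kd by a linear fit to BCL2-family pairs of known affinity, for each replicate. The assay was run in three technical replicates.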

The parent's heavy chain CDRs are GFTFDDYAMH, GISWNSGSIGYADSVK, VGRGGGYFDY; each variant's own CDRs replace them letter for letter.
The Kd shown is the geometric mean over detected replicates; a lower Kd is a better binder.
"nd" marks a missing value. The strain was present, yet no cells mated with the target were sequenced in any replicate, which points to weak or no binding.
As a blank, each scFv also met three strains without target: over library AAYL51, 21% of these pairings were detected, typically at 34 µM and seldom below 1.8 µM. Also given: how often the same scFv was detected with the empty control strains.

Kd (apparent),detected,empty controls,CDR-H1,CDR-H2,CDR-H3
2.3 nM,3/3,3/9,GFTFDDYAMH,GISWNSGQAGYADSVM,VGRGGGYFDY
300 µM,3/3,9/9,GFTFDDYAMH,GISWNSGSIGYWDSVK,MGGGGGYFDY
28 µM,1/3,1/9,GFTFCDMAMH,GISWNSGSIGYADSVK,VTRGGGYFDY
230 µM,3/3,7/9,GFTFDDYAMH,GISHNSGSIGYADSVK,VGRGGLYFDY
nd,0/3,1/9,GFTFNDYYMH,GISWNSGSIGYADSVK,VGRGGGYFDP
25 nM,3/3,8/9,GFTFDDYAMH,GISWNSGSIGYADSVK,AGRFGVYFDY
27 µM,2/3,2/9,GFTFDDYAMH,GLSCNSGSIGVADSVK,VGRGGGYFDY
nd,0/3,0/9,GFTKDDYAMH,GISWNSPSIGYADSVK,VGRGGGYFIY
170 nM,3/3,1/9,GFMFDDYAMH,GISWNSGSIGYADKVC,VGRGGGYFDY
170 nM,3/3,4/9,GFTFDDYAMH,GISWNSFAIGYADSVK,VGVGGGYFDY
3.3 µM,1/3,0/9,GFTFDDRAMH,GISWNEGSIGYADSVK,VGRGGGNFDY
nd,0/3,0/9,GFTFDDYAMH,GISWNEGDIGYVDSVK,VGRGGGYFDY
10 µM,2/3,2/9,GFRFDDYAMH,QISWNSGSIGYADSVK,VGRGVGYFDY
2.7 µM,1/3,1/9,GFTFDDGAMH,GIRWNSDSIGYADSVK,VGRGGGYFDY
250 nM,3/3,3/9,GFTFDDYAMH,GISWNSGSHGYADSVK,VGRGMGYSDY
55 µM,1/3,1/9,GFTFDDYAMH,GILVNSGWIGYADSVK,VGRGGGYFDY
1.5 nM,3/3,5/9,GFTFDDYAMH,GISWNSGSIGYADGVK,IGRGGGYFDK
nd,0/3,0/9,GFTFDDYAMW,GTSWNSGSIGYADSVK,VARGGGYFDY
480 µM,1/3,3/9,DFTFDDLAMH,GHSWNSGSIGYADSVK,VGRGGGYFDY
11 µM,2/3,2/9,GFTFDDYAMH,GISWDSGSIGYATSVK,VGRGLGYFDY
nd,0/3,3/9,GFPCDDYAMH,GISWNSGSIGYADSVK,VGMGGGYFDY
nd,0/3,6/9,GFTFDDGAMH,GISWNSGSIGYADSVK,VGRGGGYFYY
99 µM,1/3,1/9,GFTFDDYAKH,GISWNSGSIGYADSVK,VGKGGGYFDY
nd,0/3,0/9,GFTFDDYAMD,GISLNWGSIGYADSVK,VGRGGGYFDY
nd,0/3,0/9,GFTADDYAMH,GFSWNSGSIGYADSVK,VGRGGGYFDY
85 µM,1/3,3/9,GFTMDDYKMH,GISWNSGSIGYADSVK,VGRGGGYFDM
53 µM,1/3,3/9,GFTFDDWAMH,GISWNSGSIGYADSVK,PGRGGGYFYY
270 nM,3/3,1/9,GFTFDDYAFH,GISWNSGSIGYADQVK,VGRGGGYFDY
77 µM,2/3,4/9,WFTFDDYAMH,GISWFSGFIGYADSVK,VGRGGGYFDY
13 µM,2/3,0/9,GGTRDDYAMH,GISWNSGSIGYADSVK,VGRGGGPFDY
nd,0/3,0/9,GWTFDDYAMA,GISWNSGSIGYADSVK,VGRGGYYFDY
nd,0/3,1/9,GFTFDDYQMH,GISWNSGSIGYADWVK,VGRGGGTFDY
nd,0/3,0/9,GFHFDDYAMH,GISWNSGSIGYADPTK,VGRGGGYFDY
2.5 mM,1/3,3/9,GFTFDDYAMH,GISWNSVSIGPADSVK,VGRGGGYFDY
22 µM,3/3,3/9,GVTFDDYAMH,GISWNSGSIGYADSVK,VGRGGGYFDE
nd,0/3,0/9,KFTFDDYAMH,GISWNHGSIGYADSVK,VGRGGGYFDY
nd,0/3,0/9,GFTFDDYAMH,GISWNSGSIGYADSTK,VYRGGGYQDY
240 µM,3/3,9/9,GFTFDDYAMH,GISWNEGSIGYADSFG,VGRGGGYFDY
60 µM,2/3,5/9,GFTFDDYAMH,GIQWNSGWIGYADSVK,VGRGGGYFDS
530 µM,3/3,4/9,GFTFDDEAMH,GPSWNSGSIGYADSVK,VGRGGGKFDY
7.5 nM,3/3,2/9,GFTFDDYAMH,GISWNSGSIGYADMVK,VSRGGGYFYY
120 µM,1/3,1/9,GFTFDDYAMH,GWSWNSGSIGYADSVK,VGRGGGMFDS
nd,0/3,0/9,GFTFDDYEMH,GISWNSGVIGYGDSVK,VGRGGGYFDY
nd,0/3,0/9,GFTFDVYAMH,VISWNSGSIGYADSVK,VFRGGGYFDY
nd,0/3,1/9,GFTFDDYADH,GISWNSGSIGYAGSLK,VGRGGGYFDY
nd,0/3,1/9,WATFDDYAMH,GISWNQGSIGYADSVK,VGRGGGYFDY
29 µM,1/3,1/9,GFTFDDYAPH,GISWNSGSIGYADSVN,VGRGGIYFDY
10 nM,3/3,4/9,GFAFMDYAMH,GISWNSGSIGYADSVK,VGRGGGYFDY
110 µM,1/3,0/9,QFLFDDYAMH,GISWNSGSIGYADSVC,VGRGGGYFDY
31 µM,3/3,7/9,GFTFDDYAMH,GISWFSGSIGYADSVK,VGRGGGYSDY
nd,0/3,0/9,GFTEDDYAMH,GISWNSGSIGYADSVK,IGRGGQYFDY
nd,0/3,1/9,GFTFDFYANH,GISWNSGSIGYDDSVK,VGRGGGYFDY
8.1 µM,1/3,0/9,GFTNDDYAMH,GISWNSGSIGYADSVK,VGRGGGYFMY
nd,0/3,0/9,GSTFDDYAMH,GISWNSGSIGYADFVK,VGRGGGYTDY
110 µM,1/3,2/9,GFTFDHYAMH,GISWNKGSIGYADSVK,VGRGGGYFQY
240 µM,1/3,2/9,SFTFDDFAMH,QISWNSGSIGYADSVK,VGRGGGYFDY
nd,0/3,2/9,NFTFDDFAMH,GISWNSGSIGYADSVV,VGRGGGYFDY
nd,0/3,2/9,GFTSDCYAMH,GDSWNSGSIGYADSVK,VGRGGGYFDY
nd,0/3,0/9,GFTFDRYAMC,GISWNSGSIGYADSVK,VGRGGGYFDY
1.2 mM,1/3,5/9,GFTFDDYAMH,GIADNSGSIGYADSVK,VGRGPGYFDY
nd,0/3,2/9,GFTFDDYAMH,GISWNSFSIGYADSPK,VGRGGGYFDY
7.2 µM,2/3,2/9,GFTFDDYAMH,GISWNSGSIWPADSVK,VGRGGGYSDY
70 µM,2/3,5/9,GFTFDDYAMH,GISWNSGSAGYADSVK,VFRGGGYFDE
85 µM,1/3,2/9,GFTFDDYAMH,GISWNSKSIGYADSTK,VGRWGGYFDY
77 µM,1/3,0/9,GFTFHDYAMH,GPSWNSGSIGYADSVK,VGRGGGYFDY
nd,0/3,1/9,GFTFDEYVMH,GWSWNSGSIGYADSVK,VGRGGGYFDY
nd,0/3,0/9,GFTFDDYAMH,GILWNSGSIGYAPRVK,VGRGGGYFDY
190 µM,1/3,3/9,GFTFDDYHMH,GISWVLGSIGYADSVK,VGRGGGYFDY
nd,0/3,0/9,GHTFDDYAMH,GISWNSGSIAYADSEK,VGRGGGYFDY
230 µM,1/3,3/9,PFTYDDYAMH,GISWNSGSIGYADSVK,VGRGIGYFDY
nd,0/3,1/9,GFHFDDYAMC,GISWNSGSIGYADSVK,VWRGGGYFDY

Excerpt, the final 6 entries:

{"CDR-H1": "GFTFDEYVMH", "CDR-H2": "GWSWNSGSIGYADSVK", "CDR-H3": "VGRGGGYFDY", "Kd (apparent)": "nd", "detected": "0/3", "empty controls": "1/9"}
{"CDR-H1": "GFTFDDYAMH", "CDR-H2": "GILWNSGSIGYAPRVK", "CDR-H3": "VGRGGGYFDY", "Kd (apparent)": "nd", "detected": "0/3", "empty controls": "0/9"}
{"CDR-H1": "GFTFDDYHMH", "CDR-H2": "GISWVLGSIGYADSVK", "CDR-H3": "VGRGGGYFDY", "Kd (apparent)": "190 µM", "detected": "1/3", "empty controls": "3/9"}
{"CDR-H1": "GHTFDDYAMH", "CDR-H2": "GISWNSGSIAYADSEK", "CDR-H3": "VGRGGGYFDY", "Kd (apparent)": "nd", "detected": "0/3", "empty controls": "0/9"}
{"CDR-H1": "PFTYDDYAMH", "CDR-H2": "GISWNSGSIGYADSVK", "CDR-H3": "VGRGIGYFDY", "Kd (apparent)": "230 µM", "detected": "1/3", "empty controls": "3/9"}
{"CDR-H1": "GFHFDDYAMC", "CDR-H2": "GISWNSGSIGYADSVK", "CDR-H3": "VWRGGGYFDY", "Kd (apparent)": "nd", "detected": "0/3", "empty controls": "1/9"}